pKd: −log10 of the molar value.
Assays:
VEGF-A165 (human) [1] = target: VEGF-A165 (human) (UniProt P15692); test: cell-based or functional assay
VEGF-A121 = VEGF-A121 (UniProt P15692); test: SPR, Biacore T200
VEGF-A165 (human) [2] = target: VEGF-A165 (human) (UniProt P15692); test: SPR, Biacore T200

Sequences of proteins named here, by UniProt entry; tags and fusion partners are left off. A change or cut given only in a name is not applied to a line headed by its entry.
UniProt P15692: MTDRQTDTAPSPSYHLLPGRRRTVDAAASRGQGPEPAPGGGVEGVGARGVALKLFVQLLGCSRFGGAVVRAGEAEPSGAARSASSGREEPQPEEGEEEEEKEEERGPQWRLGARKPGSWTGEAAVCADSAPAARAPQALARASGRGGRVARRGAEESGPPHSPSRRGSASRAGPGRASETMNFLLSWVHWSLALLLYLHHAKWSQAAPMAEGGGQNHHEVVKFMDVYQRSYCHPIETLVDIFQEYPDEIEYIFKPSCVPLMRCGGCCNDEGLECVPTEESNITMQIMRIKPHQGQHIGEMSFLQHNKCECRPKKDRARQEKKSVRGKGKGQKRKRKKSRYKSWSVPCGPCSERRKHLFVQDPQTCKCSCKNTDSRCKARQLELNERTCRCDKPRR

## Bevacizumab injection (antibody)
VEGF-A165 (human) [1]
  EC50 (ng/mL), inhibition of VEGF-A-induced HUVEC proliferation (CCK-8): 87.1 ng/mL
  EC50, inhibition of VEGF-A-induced HUVEC proliferation (CCK-8): 0.584 nM
VEGF-A121
  pKd: 10.18
  koff: 2.49e-05 s⁻¹
  kon: 375000 M⁻¹ s⁻¹
VEGF-A165 (human) [2]
  pKd: 10.49
  koff: 4.06e-05 s⁻¹
  kon: 1.26e+06 M⁻¹ s⁻¹

From US20230056821A1
